Source: patent publication EP3970494A1 (priority 2020, dated 2022)

Tests used:
[1] = system: Phakopsora pachyrhizi; experiment: Protective control of soybean rust on soybeans, inoculation 2 days after treatment (PHAKPA P2); assay type: in vivo; conditions: soybean seedlings inoculated 2 days after treatment, strain with F129L in cytochrome b, % diseased leaf area, untreated controls usually higher than 85 %; for PHAKPA Disease level (%) P2 at 4 ppm: 4 ppm spray; for PHAKPA Disease level (%) P2 at 16 ppm: 16 ppm spray
[2] = system: Phakopsora pachyrhizi; experiment: Protective control of soybean rust on soybeans, inoculation six days after treatment (PHAKPA P6); assay type: in vivo; conditions: soybean seedlings inoculated six days after treatment, strain with F129L in cytochrome b, % diseased leaf area, untreated controls usually higher than 85 %; for PHAKPA Disease level (%) P6 at 4 ppm: 4 ppm spray; for PHAKPA Disease level (%) P6 at 16 ppm: 16 ppm spray

SMILES	PHAKPA Disease level (%) P2 at 4 ppm [1] [%]	PHAKPA Disease level (%) P2 at 16 ppm [1] [%]	PHAKPA Disease level (%) P6 at 4 ppm [2] [%]	PHAKPA Disease level (%) P6 at 16 ppm [2] [%]
CO/N=C(/C(=O)OC)c1cccc(C)c1CO/N=C(\C)c1cccnc1 [Example 131]	90	60	82	40
CNC(=O)/C(=N/OC)c1cccc(C)c1CO/N=C(\C)c1nccs1 [Example 133]	75	42	85	60
CNC(=O)/C(=N/OC)c1cccc(C)c1CO/N=C(\C)c1ccncc1 [Example 134]	85	70	82	80
CNC(=O)/C(=N/OC)c1cccc(C)c1CO/N=C(\C)c1cccnc1 [Example 135]	19	0.8	43	11
CO/N=C(/C(=O)OC)c1cccc(C)c1CO/N=C(\C)c1ncc(-c2cccc(F)c2)s1 [Example 139]	100	90	90	87
CNC(=O)/C(=N/OC)c1cccc(C)c1CO/N=C(\C)c1ncc(-c2cccc(F)c2)s1 [Example 140]	100	100	93	83
CNC(=O)/C(=N/OC)c1cccc(C)c1CO/N=C(\C)c1cnn(C)c1 [Example 142]	100	100	100	100
C=Cc1cnc(/C(C)=N/OCc2c(C)cccc2/C(=N\OC)C(=O)OC)s1 [Example 143]	100	100	100	100
C=Cc1cnc(/C(C)=N/OCc2c(C)cccc2/C(=N\OC)C(=O)NC)s1 [Example 144]	83	63	97	83
CO/N=C(/C(=O)OC)c1cccc(C)c1CO/N=C(\C)c1ncc(C)s1 [Example 147]	100	87	100	100
CNC(=O)/C(=N/OC)c1cccc(C)c1CO/N=C(\C)c1ncc(C)s1 [Example 148]	67	20	90	60
CO/N=C(/C(=O)OC)c1cccc(C)c1CO/N=C(/c1nccs1)C(F)(F)F [Example 149]	70	4	100	67
CO/N=C(/C(=O)OC)c1cccc(C)c1CO/N=C(\C)c1ncc(-c2cccc(C(F)(F)F)c2)s1 [Example 150]	100	83	100	73
CNC(=O)/C(=N/OC)c1cccc(C)c1CO/N=C(/c1nccs1)C(F)F [Example 154]	100	33	100	90
CO/N=C(/C(=O)OC)c1cccc(C)c1CO/N=C(\C)c1cnccc1C(F)(F)F [Example 155]	100	100	100	100
CNC(=O)/C(=N/OC)c1cccc(C)c1CO/N=C(\C)c1cnccc1C(F)(F)F [Example 156]	100	83	100	100
